From patent US20220387345A1, “ANTI-CANCER COMPOUNDS ACTING AS NON-PGP SUBSTRATE” (ASCENTAWITS PHARMACEUTICALS, LTD., priority 2019, published 2022)

By UniProt entry, the sequences of proteins in these tests, tags left out.
UniProt P08183, whole entry: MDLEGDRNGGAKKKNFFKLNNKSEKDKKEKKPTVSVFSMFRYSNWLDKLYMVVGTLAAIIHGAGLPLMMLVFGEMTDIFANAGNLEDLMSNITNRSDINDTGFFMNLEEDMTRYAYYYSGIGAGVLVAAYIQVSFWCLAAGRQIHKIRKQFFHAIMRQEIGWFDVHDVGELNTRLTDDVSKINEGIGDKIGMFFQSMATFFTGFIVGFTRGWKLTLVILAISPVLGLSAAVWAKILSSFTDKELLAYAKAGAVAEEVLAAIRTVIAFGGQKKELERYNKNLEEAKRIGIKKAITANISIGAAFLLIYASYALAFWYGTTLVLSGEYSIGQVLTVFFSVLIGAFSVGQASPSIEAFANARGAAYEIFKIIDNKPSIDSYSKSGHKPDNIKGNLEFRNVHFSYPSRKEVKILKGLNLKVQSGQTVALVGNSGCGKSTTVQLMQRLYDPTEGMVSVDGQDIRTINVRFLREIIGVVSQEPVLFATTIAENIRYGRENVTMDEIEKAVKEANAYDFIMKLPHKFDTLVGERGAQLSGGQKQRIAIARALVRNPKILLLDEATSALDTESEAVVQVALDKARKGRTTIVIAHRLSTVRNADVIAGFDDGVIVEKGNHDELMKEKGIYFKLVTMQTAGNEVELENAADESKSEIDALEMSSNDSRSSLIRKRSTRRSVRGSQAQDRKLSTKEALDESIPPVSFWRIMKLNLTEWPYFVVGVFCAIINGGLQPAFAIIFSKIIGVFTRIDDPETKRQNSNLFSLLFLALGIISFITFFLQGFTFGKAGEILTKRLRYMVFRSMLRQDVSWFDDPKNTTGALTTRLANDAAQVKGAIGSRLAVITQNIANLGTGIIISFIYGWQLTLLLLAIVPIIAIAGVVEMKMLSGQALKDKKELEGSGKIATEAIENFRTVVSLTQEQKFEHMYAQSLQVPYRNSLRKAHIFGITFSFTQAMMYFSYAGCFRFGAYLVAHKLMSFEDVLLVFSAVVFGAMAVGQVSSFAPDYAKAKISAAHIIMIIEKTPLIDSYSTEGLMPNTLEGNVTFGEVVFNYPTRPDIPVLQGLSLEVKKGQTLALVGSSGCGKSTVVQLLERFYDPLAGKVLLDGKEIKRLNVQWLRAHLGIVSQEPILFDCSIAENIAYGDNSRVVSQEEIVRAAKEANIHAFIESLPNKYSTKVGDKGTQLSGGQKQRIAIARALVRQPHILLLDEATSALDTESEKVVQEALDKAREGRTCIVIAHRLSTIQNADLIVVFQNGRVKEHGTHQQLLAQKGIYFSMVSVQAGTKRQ

Molecular target: P-glycoprotein (P-GP) (Homo sapiens, UniProt P08183)
Assay: Evaluation as P-Gp substrate: penetration test in MDCKII-MDR1 cells with Verapamil as inhibitor
Details: MDCKII-MDR1 cell monolayer, 2 h at 37° C., Papp(B-A)/Papp(A-B), in the absence of Verapamil

## COCCc1ccc(OCC(O)CNC(C)C)cc1 (stereo not shown) [Metoptolol, reference compound]
  Efflux ratio (MDCK-MDR1) Without Verapamil: 0.96
